# Test results as given in US4965259A, “Dioxazocine derivatives compositions and methods containing them having antidepressive, spasmolytic, anticonvulsive, and antiarrhythmic properties” (EGIS Gyogyszergyar, priority 1987, dated 1990).
# Test system: electroshock provoked by electric current
# Assay: Anticonvulsive activity on mice (inhibition of electroshock)
# Format: in vivo
# Conditions: p.o.
# Procedure: The tests were carried out according to the method of Swinyard et al. [I. Pharmacol. Exp. Ther., 106, 319-330 (1952)] which method is based on the inhibition of electroshock provoked by electric current on mice. The compounds to be tested were administered perorally. One hour later electroshocks were given by using corneal electrodes. The frequency of the electroshocks was 50 Hz, the current intensity 45 mA and the duration 0.4 sec. The full inhibition of the tonic-extensoric spasm on the hind limbs was considered as the criterium of the anticonvulsive activity. As reference compound phenobarbital, trimetadone and traboxopin were used.
structure (smiles),measurement,value
"CN1C(=O)OC(C)(C)C1=O [trimetadione, 3,5,5-trimethyl-oxazolidine-2,4-dione]",Therapeutical index LD50/ED50,4.3
